Measured values taken from PubChem BioAssay AID594 (National Center for Advancing Translational Sciences (NCATS), 2007).
The entries are a selection whose mix differs from that of the whole data set. Active and inactive are the calls of the source. Cut-off read from the data, not from the text of the source: active = max dye-equivalent concentration above about 11 nM; inconclusive = between about 1.1 nM and that limit; inactive = weaker than that.

assay: qHTS Assay for Spectroscopic Profiling in Rhodamine Spectral Region; details: Rhodamine-region fluorescence, 547/598 nm, Tris buffer
Source text: NIH Molecular Libraries Screening Centers Network [MLSCN] NIH Chemical Genomics Center [NCGC] […] Occasionally, the artifactual effect may originate from the compound#s own spectral or other biophysical properties which generally tend to track its assay concentration. Pre-screening/profiling the library with respect to the compounds# spectral properties should help one exclude false positives early on. While the most informative fluorescent profiling data set is obtained by performing a full excitation and emission scan of each well by using a monochromator-based plate reader, such an approach is practical only on a very limited scale as scanning each well requires long time. An alternative approach, applied here, is to perform plate reader scans using selected excitation and emission wavelength pairs to generate a multidimensional relational database that correlates compound concentration and the respective relative fluorescence intensity at a given wavelength set. A standard curve of rhodamine present on each plate as six-point concentration series, was used to compute a normalized fluorescence response, termed dye-equivalent concentration, for each compound at each concentration.
NCGC Assay Protocol Summary: Buffer: 100 mM Tris buffer, pH 8.0 Dye standard plate: The wells in columns 1 through 4 of a Kalypsys polypropylene 1536-well compound plate were filled with standard solutions of fluorophore corresponding to the spectral region of interest. Solutions of rhodamine were placed in the following wells: E1, F1: 3 mM, E2, F2: 300 uM, E3, F3: 30 uM, E4, F4: zero (DMSO), G1, H1: 3 uM, G2, H2: […], G3, H3: 300 nM, G4, H4: zero (DMSO). Assay Steps: Six uL of buffer were dispensed to 1536-well Greiner black plates. Compounds and dye standards (23 nL) were transferred via Kalypsys PinTool. The plates were incubated for 15 min at room temperature, and then read on ViewLux (Perkin-Elmer) High-throughput CCD imager using 547 nm and 598 nm excitation and emission filter set. Keywords: NIH Roadmap, MLSCN, MLI, MLSMR, qHTS, NCGC, Rhodamine , Fluorescent Profiling.

Structure (SMILES)	outcome
[N-]=[N+]=NCC(O)CN=[N+]=[N-] (stereo not given)	inactive
Cc1nc2ccc3ccccc3c2o1.O=[N+]([O-])c1cc([N+](=O)[O-])c(O)c([N+](=O)[O-])c1	inactive
C(Cc1nn[nH]n1)c1nn[nH]n1	inactive
COc1ccccc1OP(C)(=O)Nc1ccc(C)c(C)c1 (stereo not given)	inactive
NCC[C@@H](N)CSP(=O)(O)O	inactive
O=[N+]([O-])c1ccc(C[As](=O)(O)O)cc1	inactive
O=C(CO)Nc1ccc([As](=O)(O)O)cc1	inactive
N#[O+].[C-]#N.[C-]#N.[C-]#N.[C-]#N.[C-]#N.[Fe+2].[Na+].[Na+]	inactive
CCN(CC)CC(O)COC(=O)C(O)(c1ccccc1)C1CCCCC1 (stereo not given)	inactive
CCc1nc2c(n1)c1c(non1O)c1c2no[n+]1[O-]	inactive
COc1ccccc1OP(C)(=O)Nc1c(C)n(C)n(-c2ccccc2)c1=O (stereo not given)	inactive
C/C1=C2N=C(/C=C3N=C(/C(C)=C4\[N-][C@@](C)([C@H]5N=C1[C@@](C)(CCC(=O)NC[C@H](C)OP(=O)([O-])O[C@@H]1[C@H](O)[C@H](n6cnc7cc(C)c(C)cc76)O[C@@H]1CO)[C@@H]5CC(N)=O)[C@](C)(CC(N)=O)[C@H]4CCC(N)=O)[C@@](C)(CC(N)=O)[C@@H]\3CCC(N)=O)C(C)(C)[C@@H]/2CCC(N)=O.[C-]#N.[Co+3]	inactive
CN(C(=O)Cc1ccccc1)[C@@H]1CC[C@@]2(CCCO2)C[C@H]1N1CCCC1	inactive
O=C(OC1CN2CCC1CC2)c1cccc(Cl)c1 (stereo not given)	inactive
[N-]=[N+]=Nc1ccc([As](=O)(O)O)cc1	inactive
CN(C)CCOC(=O)C(O)(c1ccccc1)C1CCCCC1 (stereo not given)	inactive
CN1CCC[C@H](OC(=O)C(c2ccccc2)c2ccccc2)C1	inactive
NNC(NN)NN.n1nc(-c2nn[nH]n2)n[nH]1	inactive
C[C@@H](O)COc1ccc([As](=O)(O)O)cc1N	inactive
Cc1ccccc1NP(C)(=O)Nc1ccccc1C	inactive
O=P(Nc1nccs1)(c1ccccc1)c1ccccc1	inactive
c1nnnn1CCn1cnnn1	inactive
CCOP(C)(=S)SCC(=O)NC(C)(CC)C(=O)O (stereo not given)	inactive
O=P1(Nc2nc3ccc(Cl)cc3s2)COc2ccccc2O1 (stereo not given)	inactive
CP(=O)(Nc1ccccc1F)Oc1ccccc1 (stereo not given)	inactive
COC(=O)c1cc2c(s1)N=C(c1ccccc1)N(C)P2(=O)N1CCOCC1 (stereo not given)	inactive
NC(=O)Nc1ccc([As](=O)(O)O)cc1	inactive
CCOP1(=S)c2c(C)nn(CCC#N)c2N=C(c2ccc(F)cc2)N1C (stereo not given)	inactive

Structure (SMILES)	outcome
O=P(Nc1nccs1)(c1ccccc1)c1nc2ccccc2s1 (stereo not given)	inactive
CCOP1(=S)c2c(C)nn(CCC#N)c2N=C(c2ccccc2F)N1C (stereo not given)	inactive
O=[As](O)(O)c1ccc([As](=O)(O)O)cc1	inactive
O=C(CC(=O)c1ccccc1)O[C@H]1CN2CCC1CC2	inactive
NS(=O)(=O)Cc1ccc([As](=O)(O)O)cc1	inactive
CN(C(=O)Cc1ccc(Cl)c(Cl)c1)[C@@H]1CC[C@@]2(CCCO2)C[C@H]1N1CCCC1	inactive
Cc1cccc(OCC(=O)OC2CN3CCC2CC3)c1 (stereo not given)	inactive
CN(C(=O)Cc1ccc(Cl)c(Cl)c1)[C@@H]1CCCC[C@H]1N1CCCC1	inactive
Cc1nc2ccc3ccccc3c2s1.O=[N+]([O-])c1cc([N+](=O)[O-])c(O)c([N+](=O)[O-])c1	inactive
O=P1(Nc2ccccn2)COc2ccccc2OC1	inactive
CN(CCCl)Cc1cc(Cl)c(NC2=NCCN2)c(Cl)c1	inactive
Clc1n[nH]nc1-c1nn[nH][15n]1	inactive
O=P1(Nc2ncccn2)COc2ccccc2OC1	inactive
O=P1(Nc2ccc(Br)cn2)COc2ccccc2OC1	inactive
Cc1ccc(OCC(=O)OC2CN3CCC2CC3)cc1 (stereo not given)	inactive
Cc1nn(-c2ccccc2)c2c1P(=O)(N1CCOCC1)N(C)C(c1ccccc1)=N2 (stereo not given)	inactive
CP(=S)(Nn1cnnc1)Oc1ccccc1 (stereo not given)	inactive
N1=C(c2nnc(-c3nn[nH]n3)nn2)NNN1	inactive
COP1(=S)c2c(C)nn(CCC#N)c2N=C(c2ccc(F)cc2)N1C (stereo not given)	inactive
O=C(O)[C@@H](O)c1ccc([As](=O)(O)O)cc1	inactive
CP(=O)(NC(=O)Nc1ccccc1)Oc1ccccc1 (stereo not given)	inactive
O=C(COc1ccccc1)OC1CN2CCC1CC2 (stereo not given)	inactive
O=C(OC1CN2CCC1CC2)C12CC3CC(CC(C3)C1)C2 (stereo not given)	inactive
NC(=O)Nc1cc([As](=O)(O)O)cc(I)c1O	inactive
O=[As]c1ccc(S(=O)(=O)NCCO)cc1 (stereo not given)	inactive
[N-]=[N+]=NCC(N)=O	inactive
COc1ccccc1OP(C)(=O)Nc1ccc(C)cc1 (stereo not given)	inactive
